Measured affinities in a library of Ab-14 light chain variants

Target peptide (SARS-CoV-2 spike, HR2 region): PDVDLGDISGINAS

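The parent was found by panning a naive human phage display library on the peptide. These sequences belong to a second round, designed from the earlier measurements on random variants of the parent. Their group label is 14L_En_Gibbs (En: ensemble of fine-tuned language models; Gibbs: Gibbs sampling). AlphaSeq pools MATa yeast showing the antibodies with MATalpha yeast showing the peptide. Binding brings cells together so that they mate, and sequencing counts the barcode pairs among the diploids. Each replicate has its own calibration line, from reference interactions of the BCL2 family. Mating was done six times.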

Ab-14 is the parent antibody, in scFv form: VH, then a 15-residue (Gly4Ser)3 linker, then VL. The heavy chain is unchanged in all variants.
VH: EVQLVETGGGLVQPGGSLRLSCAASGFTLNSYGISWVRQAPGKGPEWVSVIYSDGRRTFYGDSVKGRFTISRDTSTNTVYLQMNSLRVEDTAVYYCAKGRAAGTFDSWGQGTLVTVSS
VL: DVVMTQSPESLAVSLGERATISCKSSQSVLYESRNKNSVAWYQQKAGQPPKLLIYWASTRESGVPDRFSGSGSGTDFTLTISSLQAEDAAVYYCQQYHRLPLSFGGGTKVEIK

Variants are written as CDR1, CDR2 and CDR3 of the light chain (limits as in the source). Parent: KSSQSVLYESRNKNSVA, WASTRES, QQYHRLPLS.
Values are log10 of the apparent Kd in nM; lower means stronger binding.
Averages over replicates are reported, and they cover detected replicates only.
An entry "nd" has no value in the source: the pair was not observed among the diploids in that replicate. This suggests poor binding but is not conclusive.
Of ten entries with the parent sequence, four were seen in most replicates (averages 0.34 to 2.37), three in one and three in none, so single entries are noisy.
The authors' rule: three or more of the six replicates give a measured affinity, fewer mean a poor binder.
Nonspecific signal, from three strains lacking the peptide, appeared in 4% of pairings of all light chain designs, centred on 2.64 (5% of these signals below 1.59); values are not corrected for it. The control count says in how many pairings with the empty strains this scFv gave a signal, with their mean in brackets.
Values of this round are not directly comparable with the first-round values of the same sequences.

CDR-L1,CDR-L2,CDR-L3,log10 Kd (nM) by replicate,mean log10 Kd (nM),empty controls
ILLQVSTEHGAALNNIA,EGARRLD,QQYARLPLV,1.81 / 1.11 / 0.57 / 1.86 / 0.83 / 1.50,1.28,0 of 18
KLMEQGGHSMDHANNIA,EVDMLAQ,QQYMHLPLI,0.84 / 0.18 / 0.53 / 0.27 / 0.24 / 0.34,0.40,2 of 18 (2.72)
TLVGNIQGGGWMIKSIA,DNVQRAN,QQYYRLPLS,1.57 / 1.37 / nd / 1.73 / 4.18 / 1.59,2.09,0 of 18
HVTLQLRPGHETQNPIA,EASHRAA,QQYAHLPLG,0.25 / 0.60 / 0.78 / 0.62 / 0.15 / 0.59,0.50,0 of 18
IIEQGQWEQEQNQNAMA,DGETRMR,QQYYKLPLV,0.43 / 0.46 / 0.09 / -0.04 / 0.86 / 1.03,0.47,0 of 18
HLSANMWMESSQWDAVA,QGDIANN,QQYSRLPLS,0.60 / -0.27 / 0.57 / 0.29 / 0.49 / 0.56,0.37,3 of 18 (2.12)
HVEHAWLLSNATMNAVA,NGATLAD,QQYGRLPLA,0.45 / 0.35 / 0.29 / 0.11 / 0.02 / 0.64,0.31,0 of 18
KIELDLTRYNAGYAAIA,HETQKAQ,QQYSRLPLV,0.96 / 0.95 / 0.67 / 0.70 / 0.64 / 1.12,0.84,1 of 18 (3.66)
WLNIEDQGDDRGMNNIA,GGDTKMA,QQYHRLPLS,1.16 / 1.10 / 0.85 / 1.01 / 0.92 / 0.94,1.00,2 of 18 (3.52)
KLVGVDDNDPNPSHAIA,DVSTLDN,QQYHRLPLD,1.34 / 1.19 / 1.32 / 0.93 / 1.84 / 1.61,1.37,2 of 18 (1.67)
QLSMNLTIYDQEQGNVA,HGEMRTE,QQYHKLPLI,1.85 / 3.33 / 2.60 / 1.76 / 3.02 / 2.57,2.52,0 of 18
HSNGSLRMDERNKNHVA,DTDVRES,QQYMRLPLV,-0.17 / -0.29 / -0.22 / -0.64 / -0.28 / -0.27,-0.31,0 of 18
IVTEAQNENSLYTNNIA,EGENTLA,QQYFRLPLQ,1.27 / 1.45 / 1.26 / 0.88 / 1.30 / 1.42,1.26,0 of 18
QLDWYNSTATASANSVA,DVAQRMN,QQYMRLPLM,0.93 / 1.17 / 0.71 / 1.03 / 1.28 / 1.42,1.09,1 of 18 (3.37)
NLSMELEDMGVKDHSIA,EEELPEY,QQYMRLPLM,1.48 / 1.65 / 1.47 / 1.82 / 1.59 / 1.79,1.63,1 of 18 (3.88)
KLGMWMYGPTEAKYAVA,QDEMRVH,QQYDRLPLI,nd / nd / nd / nd / nd / nd,nd,0 of 18
FFSLIQGSYGEANNSIA,ERNERAP,QQYGRLPLV,3.35 / 1.61 / 2.67 / 3.77 / 2.26 / 2.92,2.76,1 of 18 (3.15)
TFDQMGEQKGMNTNSVA,AGNLVRI,QQYSRLPFS,0.86 / 0.34 / 0.29 / 0.27 / 0.48 / 0.37,0.43,0 of 18
KISINQMDEYKMRSNIA,NTSQKAM,QQYFHLPLM,0.51 / 0.08 / 0.14 / -0.01 / 0.22 / 0.25,0.20,2 of 18 (2.60)
SMETLSQGMRLNWSAVA,EAHTLYQ,QYYARLPLS,nd / nd / nd / nd / nd / nd,nd,1 of 18 (3.07)
QLFSRWGQLTEIRQAVA,DATTVID,QQYMHLPLT,nd / nd / nd / nd / 0.18 / nd,0.18,0 of 18
RMNKFMSGATEAKNSMA,GVEHRAR,QSYHRLPLS,nd / nd / nd / 2.50 / nd / 2.03,2.26,2 of 18 (2.55)
GLSDQITEQIAHANSIA,DRDERDV,QQYSRLPLI,0.53 / 0.39 / 0.42 / -0.16 / 0.09 / 0.15,0.24,0 of 18
RLTNEFFKEKERKNSVA,HADQRCM,QQYFRLPLI,0.75 / 0.80 / 0.48 / 0.94 / 0.87 / 1.19,0.84,1 of 18 (3.78)
AIQQHRLGTEQYLNAIA,NAQVRED,QQYMQLPLI,0.89 / 0.38 / 0.68 / 1.09 / 0.76 / 0.82,0.77,0 of 18
KLMNSLEAFKQWEDNVA,EVEHKVA,QQYYHLPLT,nd / nd / nd / nd / 0.63 / nd,0.63,0 of 18
RLTEHESEKKAADASVA,DANTRND,QQYHRLPLF,1.10 / 1.54 / 0.86 / 1.98 / 1.30 / 1.85,1.44,3 of 18 (2.65)
QFDMFENYQGEQNASIA,GTTNRLT,QQYQKLPLS,0.76 / 0.25 / 0.47 / 0.34 / 0.78 / 0.63,0.54,0 of 18
QLAVDRLMEYEMGDAIA,GKTLRVD,QQYARLPLS,0.14 / 0.47 / 0.77 / 1.92 / 0.33 / 2.74,1.06,0 of 18
KMWDYEYGTWAMNSAIA,NASLESD,QQYDRLPLT,1.49 / 1.38 / 1.64 / 1.04 / 1.36 / 1.31,1.37,2 of 18 (3.05)
QLAVERGQEWKAGAAIA,GNTEKLH,QQYAMLPLS,1.26 / 1.29 / 1.27 / 2.59 / 1.20 / 1.40,1.50,0 of 18
KIDGQRSYQGGRERAIA,DVTIRFR,QQYARLPLV,nd / nd / nd / nd / nd / nd,nd,0 of 18
SVQNYTENFMERGQNIA,DASAKTV,QQYDRLPLA,1.24 / 1.15 / 0.96 / 1.00 / 1.08 / 0.96,1.07,1 of 18 (3.77)
QLDWYNSTATAAKNSVA,GVAQRMN,QQYMRLPLM,0.23 / -0.40 / -0.07 / -0.10 / 0.12 / 0.54,0.05,0 of 18
QLEFYDVQGTANWHAIA,EGSQLGQ,QQYFHLPLG,nd / 1.48 / 0.98 / 0.75 / 2.17 / 0.79,1.23,3 of 18 (2.07)
QLAIDRLQEYKMGAAIA,GKTTRED,QQYARLPLS,0.15 / -0.06 / -0.56 / -0.09 / 0.30 / 0.12,-0.02,0 of 18
KIYELGKGNIKTANNIA,QTDIRML,QSYNRLPLS,1.43 / 1.08 / 1.53 / 0.95 / 0.96 / 0.96,1.15,1 of 18 (2.27)
RFDQWVLESNNTEKSIA,SASNREQ,QQYARLPLF,2.64 / 2.04 / 1.56 / 1.56 / 1.75 / 1.55,1.85,1 of 18 (3.39)
MIAGSLESQEANQAPVA,SATCREP,QQYFQLPLM,1.18 / 1.49 / 1.06 / 0.58 / 0.42 / 1.33,1.01,0 of 18
TLHANIEYGGIMWSSIA,DNVQRAN,QQYQRLPLG,1.66 / 1.02 / 0.49 / 1.18 / 0.69 / 0.96,1.00,2 of 18 (2.47)
ALTRQNLQNTDNLNSIA,EQNQTQE,QQYFRLPFA,1.12 / 1.05 / 0.63 / 1.27 / 1.00 / 1.24,1.05,1 of 18 (3.43)
KISFLDYRGSQWHNNIA,EGSQRAE,QQYIRLPLN,0.59 / 0.47 / 0.30 / 0.42 / 0.21 / 0.58,0.43,1 of 18 (4.73)
TLVGNIQGGGWAKKNVA,DEVTRVN,QQYYRLPLS,0.16 / 0.20 / 0.16 / 0.10 / 0.09 / 0.30,0.17,2 of 18 (3.11)

From the AlphaSeq antibody data of Li et al. 2023 (doi:10.1038/s41467-023-39022-2), copy in the FLAb collection.